Results as given in patent publication US7807654B2, “Compositions and methods for treatment of mitochondrial diseases” (Wellstat Therapeutics Corporation, priority 1998, dated 2010).

Tested on: mice infused with sodium azide
Test: Subcutaneous azide infusion: mortality, body weight, TUNEL staining
Format: in vivo, C57/BL/6N mice
Conditions: 6% TAU or chow (data not shown)

With sodium azide the “mortality due to 60 μg/hr azide infusion” value was 60%.
